From publication PMC11931445, “A Novel Compound QO‐83 Alleviates Acute and Chronic Epileptic Seizures in Rodents by Modulating KV7 Channel Activity” (CNS Neuroscience & Therapeutics, 2025)
Where two headings read alike, the source gives them in different places.

By UniProt entry, the sequences of proteins in these tests, tags left out. Where a name states a change or a piece, a line headed by the entry shows the natural chain unless it says otherwise.
UniProt O43526, whole entry: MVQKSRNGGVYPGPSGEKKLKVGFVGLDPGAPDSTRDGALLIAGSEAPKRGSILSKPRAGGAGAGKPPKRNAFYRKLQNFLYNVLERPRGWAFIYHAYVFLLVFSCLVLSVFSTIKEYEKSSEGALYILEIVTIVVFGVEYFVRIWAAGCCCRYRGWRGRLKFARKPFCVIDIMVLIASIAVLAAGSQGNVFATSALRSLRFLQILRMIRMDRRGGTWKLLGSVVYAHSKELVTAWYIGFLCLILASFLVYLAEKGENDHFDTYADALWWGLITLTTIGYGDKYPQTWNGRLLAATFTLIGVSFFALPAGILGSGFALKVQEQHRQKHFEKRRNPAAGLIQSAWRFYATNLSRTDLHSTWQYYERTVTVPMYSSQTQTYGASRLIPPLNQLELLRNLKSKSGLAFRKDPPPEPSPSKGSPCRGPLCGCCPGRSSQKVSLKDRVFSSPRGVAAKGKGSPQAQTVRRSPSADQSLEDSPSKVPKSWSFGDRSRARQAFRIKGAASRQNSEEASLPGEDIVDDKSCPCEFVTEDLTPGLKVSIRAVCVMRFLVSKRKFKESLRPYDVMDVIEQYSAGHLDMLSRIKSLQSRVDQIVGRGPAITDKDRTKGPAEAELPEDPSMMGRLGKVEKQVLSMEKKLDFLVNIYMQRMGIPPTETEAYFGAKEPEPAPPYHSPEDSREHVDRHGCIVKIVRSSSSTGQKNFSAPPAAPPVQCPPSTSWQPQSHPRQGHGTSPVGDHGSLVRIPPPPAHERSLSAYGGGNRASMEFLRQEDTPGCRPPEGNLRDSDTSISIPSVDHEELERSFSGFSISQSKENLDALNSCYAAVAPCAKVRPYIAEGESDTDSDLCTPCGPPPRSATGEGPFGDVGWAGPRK
UniProt O43526, whole entry A306T: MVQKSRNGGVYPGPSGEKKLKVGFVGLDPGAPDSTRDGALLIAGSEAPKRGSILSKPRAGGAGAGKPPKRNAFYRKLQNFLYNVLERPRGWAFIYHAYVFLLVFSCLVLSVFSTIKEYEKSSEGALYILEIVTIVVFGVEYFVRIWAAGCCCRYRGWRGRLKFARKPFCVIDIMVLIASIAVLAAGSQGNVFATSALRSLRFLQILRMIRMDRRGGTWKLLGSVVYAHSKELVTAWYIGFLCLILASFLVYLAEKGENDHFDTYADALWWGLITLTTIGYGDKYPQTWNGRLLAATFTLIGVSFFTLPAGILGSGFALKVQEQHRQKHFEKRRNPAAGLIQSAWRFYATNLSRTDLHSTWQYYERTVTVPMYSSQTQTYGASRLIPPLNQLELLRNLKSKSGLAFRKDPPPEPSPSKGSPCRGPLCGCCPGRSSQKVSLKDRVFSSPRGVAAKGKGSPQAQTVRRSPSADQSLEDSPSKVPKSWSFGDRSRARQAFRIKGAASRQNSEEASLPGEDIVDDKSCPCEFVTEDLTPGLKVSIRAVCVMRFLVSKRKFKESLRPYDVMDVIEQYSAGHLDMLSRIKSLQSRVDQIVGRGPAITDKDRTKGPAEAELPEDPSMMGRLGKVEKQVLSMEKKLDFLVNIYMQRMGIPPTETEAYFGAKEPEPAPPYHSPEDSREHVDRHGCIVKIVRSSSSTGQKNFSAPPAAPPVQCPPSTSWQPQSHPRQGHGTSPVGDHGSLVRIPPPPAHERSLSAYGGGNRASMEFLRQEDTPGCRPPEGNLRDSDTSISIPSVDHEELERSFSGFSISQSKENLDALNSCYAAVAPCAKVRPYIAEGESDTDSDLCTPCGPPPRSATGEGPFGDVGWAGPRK
UniProt O43526, whole entry F104A: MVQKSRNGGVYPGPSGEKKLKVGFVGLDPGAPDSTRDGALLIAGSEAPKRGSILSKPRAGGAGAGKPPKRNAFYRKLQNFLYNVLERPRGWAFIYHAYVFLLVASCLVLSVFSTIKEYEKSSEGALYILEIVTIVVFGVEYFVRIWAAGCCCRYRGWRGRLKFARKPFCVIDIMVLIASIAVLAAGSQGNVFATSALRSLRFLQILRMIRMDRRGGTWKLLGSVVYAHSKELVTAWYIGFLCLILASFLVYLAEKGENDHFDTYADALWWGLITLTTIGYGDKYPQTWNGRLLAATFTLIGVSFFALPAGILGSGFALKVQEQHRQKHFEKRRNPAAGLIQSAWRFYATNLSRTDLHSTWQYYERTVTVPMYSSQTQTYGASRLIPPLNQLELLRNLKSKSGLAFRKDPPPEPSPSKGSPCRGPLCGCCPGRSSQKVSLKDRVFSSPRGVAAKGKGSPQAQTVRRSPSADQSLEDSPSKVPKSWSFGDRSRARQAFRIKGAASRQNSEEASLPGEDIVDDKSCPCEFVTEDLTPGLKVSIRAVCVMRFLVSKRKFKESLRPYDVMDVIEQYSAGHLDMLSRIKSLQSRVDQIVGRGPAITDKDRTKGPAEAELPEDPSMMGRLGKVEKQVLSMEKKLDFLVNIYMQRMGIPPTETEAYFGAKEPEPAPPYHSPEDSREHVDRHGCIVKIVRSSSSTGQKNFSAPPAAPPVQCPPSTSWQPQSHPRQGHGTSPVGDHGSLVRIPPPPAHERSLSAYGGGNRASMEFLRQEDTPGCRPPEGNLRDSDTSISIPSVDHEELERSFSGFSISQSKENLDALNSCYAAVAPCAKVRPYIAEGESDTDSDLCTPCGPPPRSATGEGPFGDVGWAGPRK
UniProt O43526, whole entry Y284C: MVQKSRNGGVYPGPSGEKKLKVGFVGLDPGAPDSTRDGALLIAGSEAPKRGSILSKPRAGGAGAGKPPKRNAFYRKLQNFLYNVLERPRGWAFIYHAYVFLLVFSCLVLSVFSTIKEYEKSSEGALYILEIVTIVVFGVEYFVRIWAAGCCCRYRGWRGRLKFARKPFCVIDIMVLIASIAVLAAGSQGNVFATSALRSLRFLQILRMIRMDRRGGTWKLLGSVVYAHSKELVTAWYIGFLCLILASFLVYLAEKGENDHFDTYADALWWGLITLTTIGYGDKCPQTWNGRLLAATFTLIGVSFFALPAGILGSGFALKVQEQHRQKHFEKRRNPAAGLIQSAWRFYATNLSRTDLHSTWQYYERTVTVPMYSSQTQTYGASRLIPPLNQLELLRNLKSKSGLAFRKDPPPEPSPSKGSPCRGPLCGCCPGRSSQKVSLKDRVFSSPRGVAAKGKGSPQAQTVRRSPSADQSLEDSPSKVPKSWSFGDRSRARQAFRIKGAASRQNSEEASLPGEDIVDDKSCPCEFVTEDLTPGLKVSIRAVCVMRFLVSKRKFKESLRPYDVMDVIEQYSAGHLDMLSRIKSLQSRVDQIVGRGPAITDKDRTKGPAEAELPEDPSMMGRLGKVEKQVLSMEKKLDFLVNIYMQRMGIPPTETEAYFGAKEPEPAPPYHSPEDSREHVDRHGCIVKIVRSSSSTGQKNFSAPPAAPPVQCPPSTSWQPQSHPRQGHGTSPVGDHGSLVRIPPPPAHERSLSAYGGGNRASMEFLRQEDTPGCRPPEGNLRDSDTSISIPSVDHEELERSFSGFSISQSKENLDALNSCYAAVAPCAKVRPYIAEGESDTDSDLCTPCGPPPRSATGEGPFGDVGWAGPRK
UniProt O43526, whole entry W236L: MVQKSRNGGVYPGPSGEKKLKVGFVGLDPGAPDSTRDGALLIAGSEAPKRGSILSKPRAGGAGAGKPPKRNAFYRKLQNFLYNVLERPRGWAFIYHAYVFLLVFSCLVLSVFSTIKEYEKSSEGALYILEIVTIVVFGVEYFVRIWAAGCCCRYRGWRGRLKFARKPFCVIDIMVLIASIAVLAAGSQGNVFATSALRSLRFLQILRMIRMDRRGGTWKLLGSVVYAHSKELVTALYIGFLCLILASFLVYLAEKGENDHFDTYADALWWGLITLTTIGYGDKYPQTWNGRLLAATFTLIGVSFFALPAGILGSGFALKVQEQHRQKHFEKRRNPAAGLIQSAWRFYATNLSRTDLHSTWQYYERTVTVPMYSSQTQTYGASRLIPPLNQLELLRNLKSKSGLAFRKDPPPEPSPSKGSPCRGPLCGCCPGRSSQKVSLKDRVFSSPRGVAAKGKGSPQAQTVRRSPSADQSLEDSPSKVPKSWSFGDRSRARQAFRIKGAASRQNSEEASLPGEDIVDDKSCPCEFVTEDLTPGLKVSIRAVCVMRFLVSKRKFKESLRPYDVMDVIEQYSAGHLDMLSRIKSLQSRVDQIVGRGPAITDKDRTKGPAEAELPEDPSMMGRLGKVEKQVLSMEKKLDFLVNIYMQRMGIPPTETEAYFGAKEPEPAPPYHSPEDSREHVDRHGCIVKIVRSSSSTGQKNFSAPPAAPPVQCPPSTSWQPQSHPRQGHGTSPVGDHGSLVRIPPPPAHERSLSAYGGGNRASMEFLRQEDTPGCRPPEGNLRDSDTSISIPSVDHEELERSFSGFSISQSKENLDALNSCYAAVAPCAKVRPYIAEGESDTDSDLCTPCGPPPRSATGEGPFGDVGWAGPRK
UniProt Q9NR82, whole entry: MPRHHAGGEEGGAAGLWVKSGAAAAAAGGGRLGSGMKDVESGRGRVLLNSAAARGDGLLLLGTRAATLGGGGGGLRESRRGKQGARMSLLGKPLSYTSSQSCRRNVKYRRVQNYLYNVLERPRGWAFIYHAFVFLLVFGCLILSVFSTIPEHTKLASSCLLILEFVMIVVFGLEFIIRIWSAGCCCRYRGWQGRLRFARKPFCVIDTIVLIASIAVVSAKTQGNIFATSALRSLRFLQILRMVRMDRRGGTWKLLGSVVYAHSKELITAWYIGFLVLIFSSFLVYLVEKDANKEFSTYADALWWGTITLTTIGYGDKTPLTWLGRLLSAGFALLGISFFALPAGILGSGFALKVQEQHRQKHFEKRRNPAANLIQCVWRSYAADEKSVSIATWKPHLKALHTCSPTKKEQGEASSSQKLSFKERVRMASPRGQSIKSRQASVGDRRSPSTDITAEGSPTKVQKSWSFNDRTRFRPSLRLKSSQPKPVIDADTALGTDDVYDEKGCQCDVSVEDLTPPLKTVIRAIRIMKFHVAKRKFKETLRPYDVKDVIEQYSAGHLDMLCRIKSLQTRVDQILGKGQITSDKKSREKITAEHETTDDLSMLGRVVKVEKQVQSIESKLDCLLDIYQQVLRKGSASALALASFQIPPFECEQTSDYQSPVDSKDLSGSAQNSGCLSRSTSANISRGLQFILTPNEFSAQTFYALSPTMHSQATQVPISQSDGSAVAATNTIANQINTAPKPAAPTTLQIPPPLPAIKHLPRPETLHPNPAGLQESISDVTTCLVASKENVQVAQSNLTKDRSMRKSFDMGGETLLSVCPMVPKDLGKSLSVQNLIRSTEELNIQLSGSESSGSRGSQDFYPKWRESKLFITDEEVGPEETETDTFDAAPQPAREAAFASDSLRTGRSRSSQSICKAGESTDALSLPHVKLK
UniProt P56696, whole entry: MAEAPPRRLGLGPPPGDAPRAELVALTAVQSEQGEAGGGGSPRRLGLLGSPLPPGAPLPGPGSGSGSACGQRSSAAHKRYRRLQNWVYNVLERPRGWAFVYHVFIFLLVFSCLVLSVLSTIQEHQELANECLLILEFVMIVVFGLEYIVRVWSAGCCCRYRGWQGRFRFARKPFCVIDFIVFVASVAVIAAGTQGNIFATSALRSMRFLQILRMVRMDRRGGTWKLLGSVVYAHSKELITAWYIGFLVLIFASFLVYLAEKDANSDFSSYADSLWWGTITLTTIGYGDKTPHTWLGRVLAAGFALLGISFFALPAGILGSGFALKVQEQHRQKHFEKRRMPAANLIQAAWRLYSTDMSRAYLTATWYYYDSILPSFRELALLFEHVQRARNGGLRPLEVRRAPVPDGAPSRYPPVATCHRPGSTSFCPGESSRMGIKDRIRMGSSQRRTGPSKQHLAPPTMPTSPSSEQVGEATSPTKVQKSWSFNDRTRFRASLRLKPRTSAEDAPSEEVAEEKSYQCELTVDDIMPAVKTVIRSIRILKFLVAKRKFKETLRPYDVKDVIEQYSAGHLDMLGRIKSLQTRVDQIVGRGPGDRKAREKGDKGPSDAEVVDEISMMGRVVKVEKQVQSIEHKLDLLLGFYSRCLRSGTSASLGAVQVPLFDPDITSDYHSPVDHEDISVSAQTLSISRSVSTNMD

What was measured:
[1] = system: M‐current in mPFC neurons; test: M current recording in brain slices
[2] = system: L02 cells; test: MTT cytotoxicity; details: 0.1-100 μM; 24h and 48h
[3] = system: PTZ-induced seizures; test: Metrazol maximal seizure (MMS) model; details: for seizure latency: model 6.92 ± 1.67 min
[4] = biological target: KV7.2^F104A (Homo sapiens, UniProt O43526, F104A); test: Patch clamp on KV7.2 binding site mutant; details: 10 µM
[5] = biological target: KV7.2^W236L (Homo sapiens, UniProt O43526, W236L); test: Patch clamp on KV7.2 binding site mutant; details: 10 µM
[6] = system: electroshock seizures; test: Maximal electroshock seizure (MES) model
[7] = system: PTZ kindling seizures; test: Chronic PTZ-induced epileptic kindling model; format: in vivo, Wistar Institute rats
[8] = biological target: KV7.3 (Homo sapiens, UniProt O43525); test: Manual patch clamp, KV7 currents; details: for EC50: Hill fitting
[9] = biological target: KV7.2 (Homo sapiens, UniProt O43526); test: Manual patch clamp, KV7 currents; details: for EC50: Hill fitting
[10] = biological target: KV7.2/7.3 (Homo sapiens, UniProt O43525+O43526); test: Manual patch clamp, KV7 currents; details: for EC50: Hill fitting
[11] = biological target: KV7.5 (Homo sapiens, UniProt Q9NR82); test: Manual patch clamp, KV7 currents; details: for EC50: Hill fitting
[12] = biological target: T1, KV7.4 (Homo sapiens, UniProt P56696); test: Manual patch clamp, KV7 currents; details: for EC50: Hill fitting
[13] = system: pilocarpine-induced seizures; test: Pilocarpine-induced status epilepticus model with EEG; format: in vivo, Sprague–Dawley (SD) rats
[14] = HPLC-MS/MS tissue distribution (blood-brain barrier permeability); details: for brain tissue content / plasma drug content: Mean ± SD
[15] = biological target: KV7.2^A306T (Homo sapiens, UniProt O43526, A306T); test: Patch clamp on KV7.2 epilepsy mutant; details: 10 µM
[16] = biological target: KV7.2^Y284C (Homo sapiens, UniProt O43526, Y284C); test: Patch clamp on KV7.2 epilepsy mutant; details: 10 µM
[17] = system: PNC-induced seizures; test: Penicillin (PNC) induced acute epilepsy model; details: for seizure latency: model 10.63 ± 2.39 min
[18] = system: hippocampal pyramidal neurons; test: sEPSC/sIPSC recordings in Mg2+-free brain slices; format: cell-based, Sprague–Dawley (SD) rats
[19] = biological target: T1, KV7.4; test: Rb+ efflux high-throughput screening (ICR 8000); format: cell-based; details: read-out: EC50 for activation of KV7.4 channels, stably expressed in HEK293 cells
[20] = system: mPFC and hippocampal pyramidal neurons; test: Action potential recordings in Mg2+-free brain slices; format: cell-based, Sprague–Dawley (SD) rats; details: for effect on AP firing: Mg2+-free slices
[21] = 15 minutes after intragastric 10 mg/kg
[22] = 1 hour after intragastric 10 mg/kg

Nc1c(NC(=O)CCC2CCCC2)ccc(NCc2ccc(C(F)(F)F)cc2)c1F
effect on M-current ([1]; 1 μM QO-83 + 20 μM XE991 after XE991 perfusion): failed to further enhance | effect on M-current ([1]; mPFC neurons, QO-83 alone): significantly opened | effect on cell viability (MTT) [2]: no significant impact on cell viability | seizure protection rate ([3]; 1 mg/kg): 25% | seizure latency ([3]; 1.0 mg/kg i.p.): 14.45 ± 2.54 min | seizure protection rate ([3]; 3 mg/kg): 45% | seizure latency ([3]; 3.0 mg/kg i.p.): 19.43 ± 2.42 min | hyperpolarizing shift of V1/2 [4]: 8.55 mV | effect on current density ([4]; 0 mV, 1000 ms stimulation): did not have a significant effect | V1/2 of activation ([4]; control -17.06 ± 1.27 mV): -25.61 ± 1.08 mV | effect on current density ([5]; 0 mV, 1000 ms stimulation): no significant effect on the current density | V1/2 of activation ([5]; control -18.91 ± 3.20 mV): -19.33 ± 2.09 mV | electroshock protection rate ([6]; 1 mg/kg i.p.): 10% | electroshock protection rate ([6]; 1.5 mg/kg i.p.): 50% | electroshock protection rate ([6]; 2 mg/kg i.p.): 60% | electroshock protection rate ([6]; 2.5 mg/kg i.p.): 80% | electroshock protection rate ([6]; 3 mg/kg i.p.): 100% | ED50 (anticonvulsant protection, MES) ([6]; i.p., fitted to a logistic function): 2.27 ± 1.29 mg/kg | effect on latency period ([7]; 1 mg/kg): significantly prolong the latency period | seizure grade ([7]; 1 mg/kg i.p. daily, 30th day, model 4.68 ± 0.62): 2.12 ± 0.22 | activation curve V1/2 ([8]; KV7.3, 0.01 μM): -27.52 ± 1.41 mV | activation curve V1/2 ([8]; KV7.3, 0.05 μM): -29.39 ± 1.57 mV | activation curve V1/2 ([8]; KV7.3, 0.10 μM): -30.92 ± 1.23 mV | activation curve V1/2 ([8]; KV7.3, 0.50 μM): -28.78 ± 1.67 mV | activation curve V1/2 ([8]; KV7.3, 5.00 μM): -56.12 ± 1.01 mV | shift of activation V1/2 ([8]; KV7.3, 10 μM): −37.67 mV | activation curve V1/2 ([8]; KV7.3, 10.00 μM): -62.91 ± 1.18 mV | Activation τ (10 mV) ([8]; KV7.3, 10 μM, Mean ± SE): 221.50 ± 32.08 ms | Deactivation τ (-120 mV) ([8]; KV7.3, 10 μM, Mean ± SE): 125.31 ± 15.77 ms | EC50 ([8]; read-out: EC50 for opening KV7.3, manual patch clamp): 0.22 µM | EC50 ([8]; read-out: EC50 of ΔV1/2, KV7.3, activation shift): 0.82 µM | effect on KV7.2 channel current ([9]; 1 μM QO-83 co-applied with 20 μM XE991): did not further increase the KV7.2 channel current | activation curve V1/2 ([9]; KV7.2, 0.01 μM): -20.30 ± 1.48 mV | activation curve V1/2 ([9]; KV7.2, 0.05 μM): -21.38 ± 1.03 mV | activation curve V1/2 ([9]; KV7.2, 0.10 μM): -29.20 ± 1.24 mV | activation curve V1/2 ([9]; KV7.2, 0.50 μM): -39.26 ± 1.00 mV | activation curve V1/2 ([9]; KV7.2, 1.00 μM): -34.18 ± 1.18 mV | activation curve V1/2 ([9]; KV7.2, 5.00 μM): -38.46 ± 1.19 mV | activation curve V1/2 ([9]; KV7.2, 10.00 μM): -45.37 ± 1.26 mV | Activation τ (10 mV) ([9]; KV7.2, 10 μM, Mean ± SE): 201.23 ± 62.21 ms | Deactivation τ (-120 mV) ([9]; KV7.2, 10 μM, Mean ± SE): 115.04 ± 18.26 ms | effect on KV7.2 channel current ([9]; QO-83 alone): significantly increased the KV7.2 channel current | EC50 ([9]; read-out: EC50 for opening KV7.2, manual patch clamp): 0.56 µM | EC50 ([9]; read-out: EC50 of ΔV1/2, KV7.2, activation shift): 0.25 µM | activation curve V1/2 ([10]; KV7.2/7.3, 0.01 μM): -13.15 ± 1.63 mV | activation curve V1/2 ([10]; KV7.2/7.3, 0.05 μM): -13.35 ± 2.97 mV | activation curve V1/2 ([10]; KV7.2/7.3, 0.10 μM): -13.29 ± 2.95 mV | activation curve V1/2 ([10]; KV7.2/7.3, 0.50 μM): -17.90 ± 1.63 mV | activation curve V1/2 ([10]; KV7.2/7.3, 1.00 μM): -25.70 ± 1.50 mV | activation curve V1/2 ([10]; KV7.2/7.3, 5.00 μM): -36.05 ± 1.83 mV | shift of activation V1/2 ([10]; KV7.2/7.3, 10 μM): −27.79 mV | activation curve V1/2 ([10]; KV7.2/7.3, 10.00 μM): -41.05 ± 3.24 mV | Activation τ (10 mV) ([10]; KV7.2/7.3, 10 μM, Mean ± SE): 190.06 ± 32.38 ms | Deactivation τ (-120 mV) ([10]; KV7.2/7.3, 10 μM, Mean ± SE): 173.70 ± 40.16 ms | EC50 ([10]; read-out: EC50 for opening KV7.2/7.3, manual patch clamp): 0.07 µM | EC50 ([10]; read-out: EC50 of ΔV1/2, KV7.2/7.3, activation shift): 1 µM | activation curve V1/2 ([11]; KV7.5, 0.01 μM): -40.14 ± 1.96 mV | activation curve V1/2 ([11]; KV7.5, 0.05 μM): -37.74 ± 1.98 mV | activation curve V1/2 ([11]; KV7.5, 0.10 μM): -44.84 ± 2.17 mV | activation curve V1/2 ([11]; KV7.5, 0.50 μM): -44.43 ± 3.78 mV | activation curve V1/2 ([11]; KV7.5, 1.00 μM): -58.71 ± 2.45 mV | activation curve V1/2 ([11]; KV7.5, 5.00 μM): -61.54 ± 2.70 mV | shift of activation V1/2 ([11]; KV7.5, 10 μM): −26.28 mV | activation curve V1/2 ([11]; KV7.5, 10.00 μM): -65.46 ± 2.19 mV | Activation τ (10 mV) ([11]; KV7.5, 10 μM, Mean ± SE): 181.42 ± 22.22 ms | Deactivation τ (-120 mV) ([11]; KV7.5, 10 μM, Mean ± SE): 95.34 ± 8.82 ms | EC50 ([11]; read-out: EC50 for opening KV7.5, manual patch clamp): 0.59 µM | EC50 ([11]; read-out: EC50 of ΔV1/2, KV7.5, activation shift): 0.74 µM | activation curve V1/2 ([12]; KV7.4, 0.01 μM): -23.98 ± 1.51 mV | activation curve V1/2 ([12]; KV7.4, 0.05 μM): -24.11 ± 1.51 mV | activation curve V1/2 ([12]; KV7.4, 0.10 μM): -25.55 ± 2.24 mV | activation curve V1/2 ([12]; KV7.4, 0.50 μM): -27.22 ± 2.43 mV | activation curve V1/2 ([12]; KV7.4, 1.00 μM): -35.87 ± 1.99 mV | activation curve V1/2 ([12]; KV7.4, 5.00 μM): -35.78 ± 2.41 mV | shift of activation V1/2 ([12]; KV7.4, 10 μM): −10.01 mV | activation curve V1/2 ([12]; KV7.4, 10.00 μM): -32.52 ± 2.52 mV | Activation τ (10 mV) ([12]; KV7.4, 10 μM, Mean ± SE): 227.33 ± 52.03 ms | Deactivation τ (-120 mV) ([12]; KV7.4, 10 μM, Mean ± SE): 72.08 ± 6.24 ms | EC50 ([12]; read-out: EC50 for opening KV7.4, manual patch clamp): 0.67 µM | EC50 ([12]; read-out: EC50 of ΔV1/2, KV7.4, activation shift): 0.52 µM | seizure latency ([13]; 1 mg/kg QO-83 co-administered with (after) 2 mg/kg XE991, Pilo model 22.73 ± 6.03 min): 14.01 ± 7.10 min | seizure grade versus model group ([13]; 1 mg/kg QO-83 with 2 mg/kg XE991): No significant differences | seizure grade (Racine) ([13]; 1 mg/kg i.p., Pilo model 4.70 ± 0.12): 2.33 ± 0.24 | latency of seizures (first grade III seizure) ([13]; 1 mg/kg i.p., Pilo model 21.64 ± 8.89 min): 56.79 ± 26.29 min | effect on EEG power spectral density ([13]; 1 mg/kg i.p., pilocarpine-treated rats): significantly inhibited the increase in EEG power spectral density | brain-to-plasma concentration ratio [14, 21]: 343.67% | brain tissue content [14, 21]: 94.58 ± 26.48 ng/g | plasma drug content [14, 21]: 27.52 ± 25.46 ng/g | brain-to-plasma concentration ratio [14, 22]: 168.73% | brain tissue content [14, 22]: 172.25 ± 75.13 ng/g | plasma drug content [14, 22]: 102.11 ± 96.64 ng/g | hyperpolarizing shift of V1/2 [15]: 16.86 mV | effect on current density ([15]; 0 mV, 1000 ms stimulation): significantly increased the current density | V1/2 of activation ([15]; control -27.58 ± 1.23 mV): -44.44 ± 0.90 mV | hyperpolarizing shift of V1/2 [16]: 9.58 mV | effect on current density ([16]; 0 mV, 1000 ms stimulation): still increased the current density | V1/2 of activation ([16]; control -18.46 ± 3.20 mV): -28.04 ± 2.81 mV | seizure grade ([17]; 5 mg/kg oral): 3.33 ± 0.42 | seizure latency ([17]; 5 mg/kg oral): 35.00 ± 4.61 min | seizure grade ([17]; 10 mg/kg oral): 3.12 ± 0.47 | seizure latency ([17]; 10 mg/kg oral): 36.25 ± 6.29 min | sIPSC amplitude ([18]; Mg2+-free group 30.08 ± 3.02 pA, 1 μM): 81.15 ± 7.57 pA | sEPSC amplitude ([18]; Mg2+-free group 74.06 ± 8.08 pA, 1 μM): 23.20 ± 2.11 pA | effect on sEPSC frequency ([18]; Mg2+-free slices): Without affecting | effect on sIPSC frequency ([18]; Mg2+-free slices): no effects | EC50 [19]: 0.84 µM | effect on AP firing ([20]; 1 μM): significantly reduced AP firing | effect on AP firing ([20]; 10 μM): significantly inhibited AP firing | effect on AHP ([20]; 180 pA current stimulation): significantly shifted the AHP | effect on RMP ([20]; 180 pA current stimulation): significantly decreasing the RMP | effect on rheobase and threshold ([20]; 180 pA current stimulation): significantly increased the rheobase and threshold
